# Legend:
# Protein sequences, listed by entry. Tags and fused reporters are not part of them.
# UniProt Q7Z2W7, whole entry: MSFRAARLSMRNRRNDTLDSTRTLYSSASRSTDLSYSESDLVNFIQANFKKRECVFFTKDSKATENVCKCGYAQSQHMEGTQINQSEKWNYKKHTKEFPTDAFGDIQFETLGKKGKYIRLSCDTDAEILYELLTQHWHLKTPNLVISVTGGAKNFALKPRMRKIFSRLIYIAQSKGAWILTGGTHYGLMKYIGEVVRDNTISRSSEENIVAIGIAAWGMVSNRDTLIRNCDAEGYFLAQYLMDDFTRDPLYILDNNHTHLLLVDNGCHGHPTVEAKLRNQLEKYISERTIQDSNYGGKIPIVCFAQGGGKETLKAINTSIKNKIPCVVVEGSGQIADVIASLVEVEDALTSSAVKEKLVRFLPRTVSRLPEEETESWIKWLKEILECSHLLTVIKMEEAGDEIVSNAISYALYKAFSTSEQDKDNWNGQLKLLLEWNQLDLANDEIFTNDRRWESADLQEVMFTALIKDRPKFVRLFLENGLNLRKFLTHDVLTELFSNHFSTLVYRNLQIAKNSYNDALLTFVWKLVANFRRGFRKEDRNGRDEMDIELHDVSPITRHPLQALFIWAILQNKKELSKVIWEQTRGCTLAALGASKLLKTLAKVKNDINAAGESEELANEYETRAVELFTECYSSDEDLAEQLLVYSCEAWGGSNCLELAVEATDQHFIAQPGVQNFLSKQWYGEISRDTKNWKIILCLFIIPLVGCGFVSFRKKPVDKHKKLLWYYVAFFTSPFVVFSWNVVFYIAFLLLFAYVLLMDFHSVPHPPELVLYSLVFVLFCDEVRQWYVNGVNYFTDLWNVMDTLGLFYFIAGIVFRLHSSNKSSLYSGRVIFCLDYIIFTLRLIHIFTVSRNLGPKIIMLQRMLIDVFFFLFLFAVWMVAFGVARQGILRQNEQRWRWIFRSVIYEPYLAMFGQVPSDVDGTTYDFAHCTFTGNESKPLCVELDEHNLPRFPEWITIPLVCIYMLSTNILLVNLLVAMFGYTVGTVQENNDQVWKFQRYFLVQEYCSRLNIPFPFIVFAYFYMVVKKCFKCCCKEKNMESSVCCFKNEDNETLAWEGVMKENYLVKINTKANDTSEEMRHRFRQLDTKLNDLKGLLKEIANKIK
# UniProt Q7Z2W7, whole entry I746A: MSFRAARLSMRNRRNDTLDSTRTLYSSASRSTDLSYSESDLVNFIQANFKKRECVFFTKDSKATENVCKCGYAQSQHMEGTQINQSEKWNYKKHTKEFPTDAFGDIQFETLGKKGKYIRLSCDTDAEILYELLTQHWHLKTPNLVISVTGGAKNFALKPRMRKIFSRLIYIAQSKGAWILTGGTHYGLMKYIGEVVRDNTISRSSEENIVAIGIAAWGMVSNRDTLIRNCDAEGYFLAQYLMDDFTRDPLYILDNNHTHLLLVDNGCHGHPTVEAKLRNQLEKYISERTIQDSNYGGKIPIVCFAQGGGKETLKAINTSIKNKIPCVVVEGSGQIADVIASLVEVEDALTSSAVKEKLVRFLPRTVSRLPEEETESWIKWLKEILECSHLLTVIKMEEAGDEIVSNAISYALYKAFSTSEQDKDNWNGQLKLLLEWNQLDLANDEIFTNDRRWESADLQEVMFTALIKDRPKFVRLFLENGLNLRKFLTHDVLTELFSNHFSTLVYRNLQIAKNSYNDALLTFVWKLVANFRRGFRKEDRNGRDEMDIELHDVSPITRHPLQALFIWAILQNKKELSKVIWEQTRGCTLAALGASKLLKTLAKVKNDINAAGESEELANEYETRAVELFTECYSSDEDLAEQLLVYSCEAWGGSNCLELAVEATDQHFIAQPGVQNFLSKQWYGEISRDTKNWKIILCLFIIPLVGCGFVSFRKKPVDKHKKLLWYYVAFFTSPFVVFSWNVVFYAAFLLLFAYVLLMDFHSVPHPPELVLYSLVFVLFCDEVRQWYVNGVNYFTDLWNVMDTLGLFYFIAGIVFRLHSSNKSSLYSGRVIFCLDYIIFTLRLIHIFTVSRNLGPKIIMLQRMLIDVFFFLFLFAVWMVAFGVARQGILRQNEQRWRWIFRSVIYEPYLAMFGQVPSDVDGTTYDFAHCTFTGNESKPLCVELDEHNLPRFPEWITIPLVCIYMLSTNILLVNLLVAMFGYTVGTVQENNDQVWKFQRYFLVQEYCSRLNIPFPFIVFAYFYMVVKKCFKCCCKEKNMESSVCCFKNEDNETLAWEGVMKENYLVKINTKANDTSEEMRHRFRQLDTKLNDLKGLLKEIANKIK
# UniProt Q7Z2W7, whole entry N799A: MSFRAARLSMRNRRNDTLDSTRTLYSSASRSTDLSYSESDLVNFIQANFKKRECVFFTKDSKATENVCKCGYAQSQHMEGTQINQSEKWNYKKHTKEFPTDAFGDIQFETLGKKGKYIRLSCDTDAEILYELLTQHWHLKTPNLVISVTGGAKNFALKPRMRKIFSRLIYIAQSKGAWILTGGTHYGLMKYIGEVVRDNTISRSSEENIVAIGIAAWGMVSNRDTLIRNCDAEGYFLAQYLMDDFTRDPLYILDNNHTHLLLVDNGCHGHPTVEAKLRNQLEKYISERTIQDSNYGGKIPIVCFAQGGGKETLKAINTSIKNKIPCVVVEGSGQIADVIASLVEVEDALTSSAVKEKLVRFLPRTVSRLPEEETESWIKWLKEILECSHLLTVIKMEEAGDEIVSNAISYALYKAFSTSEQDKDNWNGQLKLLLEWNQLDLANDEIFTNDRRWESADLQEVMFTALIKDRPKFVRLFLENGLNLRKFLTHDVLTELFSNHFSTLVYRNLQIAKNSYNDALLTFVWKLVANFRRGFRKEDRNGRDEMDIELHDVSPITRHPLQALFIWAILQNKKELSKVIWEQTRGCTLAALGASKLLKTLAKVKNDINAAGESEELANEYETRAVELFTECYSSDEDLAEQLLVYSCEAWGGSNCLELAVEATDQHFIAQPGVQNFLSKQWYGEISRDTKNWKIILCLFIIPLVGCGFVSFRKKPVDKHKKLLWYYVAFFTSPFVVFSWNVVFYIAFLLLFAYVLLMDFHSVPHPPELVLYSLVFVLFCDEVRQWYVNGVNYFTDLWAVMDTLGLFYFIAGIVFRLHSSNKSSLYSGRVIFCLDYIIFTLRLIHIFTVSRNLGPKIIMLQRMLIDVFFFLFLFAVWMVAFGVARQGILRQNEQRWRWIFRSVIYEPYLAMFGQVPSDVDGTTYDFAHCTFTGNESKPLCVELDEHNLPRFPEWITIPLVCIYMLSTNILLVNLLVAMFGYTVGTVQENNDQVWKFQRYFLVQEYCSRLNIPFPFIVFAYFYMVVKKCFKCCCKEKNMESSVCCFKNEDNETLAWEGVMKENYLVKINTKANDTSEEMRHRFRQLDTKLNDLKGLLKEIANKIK
# UniProt Q7Z2W7, whole entry D802A: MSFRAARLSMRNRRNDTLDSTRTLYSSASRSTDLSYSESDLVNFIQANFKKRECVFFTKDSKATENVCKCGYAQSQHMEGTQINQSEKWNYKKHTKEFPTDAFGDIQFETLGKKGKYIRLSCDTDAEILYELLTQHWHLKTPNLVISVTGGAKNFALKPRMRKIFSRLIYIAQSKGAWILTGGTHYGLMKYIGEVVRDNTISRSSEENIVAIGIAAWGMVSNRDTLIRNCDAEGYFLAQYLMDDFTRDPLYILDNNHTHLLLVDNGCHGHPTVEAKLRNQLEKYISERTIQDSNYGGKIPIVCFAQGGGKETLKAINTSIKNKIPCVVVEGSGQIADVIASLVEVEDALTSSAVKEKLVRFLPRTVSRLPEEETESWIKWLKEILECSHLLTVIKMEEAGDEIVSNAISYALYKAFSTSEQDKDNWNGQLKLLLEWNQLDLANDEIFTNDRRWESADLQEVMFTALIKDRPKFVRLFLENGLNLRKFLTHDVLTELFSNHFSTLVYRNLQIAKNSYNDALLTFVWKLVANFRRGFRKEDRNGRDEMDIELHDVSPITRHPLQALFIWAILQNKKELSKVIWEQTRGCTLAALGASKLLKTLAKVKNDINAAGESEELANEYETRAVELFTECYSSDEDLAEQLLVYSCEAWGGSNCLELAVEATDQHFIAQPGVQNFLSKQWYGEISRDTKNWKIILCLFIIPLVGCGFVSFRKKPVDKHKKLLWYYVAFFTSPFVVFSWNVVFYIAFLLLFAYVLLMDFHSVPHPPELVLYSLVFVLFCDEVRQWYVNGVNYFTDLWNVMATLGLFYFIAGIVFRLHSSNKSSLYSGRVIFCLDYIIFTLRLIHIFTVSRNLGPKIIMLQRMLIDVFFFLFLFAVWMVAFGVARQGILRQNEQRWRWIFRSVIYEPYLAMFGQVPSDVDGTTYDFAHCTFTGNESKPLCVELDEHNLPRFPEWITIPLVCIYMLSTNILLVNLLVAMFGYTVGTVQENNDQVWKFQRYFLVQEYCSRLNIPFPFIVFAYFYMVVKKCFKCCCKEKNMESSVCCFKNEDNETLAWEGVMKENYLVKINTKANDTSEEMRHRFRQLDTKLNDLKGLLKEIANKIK
# Assay type in all cases: cell-based
# [1] = molecular target: T1, Transient receptor potential cation channel subfamily M member 8 (Homo sapiens, UniProt Q7Z2W7); test: Inhibition of wild type human TRPM8 expressed in HEK293 cells assessed as reduction in ethyl 4-methoxy-2-phenylthiazole-5-carboxylate induced Ca2+ efflux
# [2] = molecular target: T1, Transient receptor potential cation channel subfamily M member 8; test: Inhibition of human TRPM8 expressed in HEK293 cells assessed as reduction in cold stimulated Ca2+ efflux preincubated for 5 mins followed by cold stimulation and measured for 3 mins
# [3] = molecular target: T2, Transient receptor potential cation channel subfamily M member 8 (Homo sapiens, UniProt Q7Z2W7, I746A); test: Inhibition of human TRPM8 I746A mutant expressed in HEK293 cells assessed as reduction in icilin induced Ca2+ efflux
# [4] = molecular target: T2, Transient receptor potential cation channel subfamily M member 8; test: Inhibition of human TRPM8 I746A mutant expressed in HEK293 cells assessed as reduction in ethyl 4-methoxy-2-phenylthiazole-5-carboxylate induced Ca2+ efflux
# [5] = molecular target: T1, Transient receptor potential cation channel subfamily M member 8; test: Inhibition of human TRPM8 expressed in HEK293 cells assessed as decrease in outward currents by patch clamp electrophysiology method
# [6] = molecular target: T1, Transient receptor potential cation channel subfamily M member 8; test: Inhibition of wild type human TRPM8 expressed in HEK293 cells assessed as reduction in icilin induced Ca2+ efflux
# [7] = molecular target: T1, Transient receptor potential cation channel subfamily M member 8; test: Inhibition of human TRPM8 expressed in HEK293 cells assessed as reduction in icilin induced Ca2+ efflux preincubated for 5 mins followed by icilin addition and measured for 3 mins by FLIPR assay
# [8] = molecular target: T1, Transient receptor potential cation channel subfamily M member 8; test: Inhibition of human TRPM8 expressed in HEK293 cells assessed as reduction in ethyl 4-methoxy-2-phenylthiazole-5-carboxylate induced Ca2+ efflux preincubated for 5 mins followed by ethyl 4-methoxy-2-phenylthiazole-5-carboxylate addition and measured for 3 mins by FLIPR assay
# [9] = molecular target: Transient receptor potential cation channel subfamily M member 8 (Homo sapiens, UniProt Q7Z2W7, N799A); test: Inhibition of human TRPM8 N799A mutant expressed in HEK293 cells assessed as reduction in ethyl 4-methoxy-2-phenylthiazole-5-carboxylate induced Ca2+ efflux
# [10] = molecular target: Transient receptor potential cation channel subfamily M member 8 (Homo sapiens, UniProt Q7Z2W7, D802A); test: Inhibition of human TRPM8 D802A mutant expressed in HEK293 cells assessed as reduction in ethyl 4-methoxy-2-phenylthiazole-5-carboxylate induced Ca2+ efflux
smiles,measurement,setting,value
CCn1nnc(-c2sc(-c3cccc(F)c3)nc2O)n1,IC50,[1],75 nM
same,IC50,[2],21.4 nM
same,IC50,[3],60 nM
same,IC50,[4],50 nM
same,IC50,[5],36 nM
same,IC50,[6],76 nM
same,IC50,[7],24 nM
same,IC50,[8],18 nM
same,IC50,[9],250 nM
same,IC50,[10],> 30000 nM

# Source: ChEMBL document CHEMBL5260854, “Discovery of Novel TRPM8 Blockers Suitable for the Treatment of Somatic and Ocular Painful Conditions: A Journey through pKa and LogD Modulation” (J Med Chem, 2021)
